The values below come from patent publication US9783573B2, “IAP antagonists” (BRISTOL-MYERS SQUIBB COMPANY, priority 2012, dated 2017).

SMILES strings stand for the structures.

The target of the assay is His-BIR2 (124-240/C202A/C213G) (Homo sapiens (Human), UniProt P98170, C202A/C213G). As to conditions: read-out: XIAP-BIR2 AlphaScreen IC50, Biotinylated SMAC peptide. In general terms: Bead proximity is the source of the signal in Alpha formats.

For the compound `CN[C@@H](C)C(=O)N[C@H](C(=O)N1Cc2cc(N(C(=O)C3(C(N)=O)CC3)[C@H]3C[C@@H](C(=O)N[C@@H]4CCCc5ccccc54)N(C(=O)[C@@H](NC(=O)[C@H](C)NC)C(C)(C)C)C3)ccc2C[C@H]1C(=O)N[C@@H]1CCCc2ccccc21)C(C)(C)C` [Example 4, N-((S)-2-((S)-3,3-Dimethyl-2-((S)-2-(methylamino)propanamido)butanoyl)-3-(((R)-1,2,3,4-tetrahydronaphthalen-1-yl)carbamoyl)-1,2,3,4-tetrahydroisoquinolin-7-yl)-N-((3S,5S)-1-((S)-3,3-dimethyl-2-((S)-2-(methylamino)propanamido)butanoyl)-5-(((R)-1,2,3,4-tetrahydronaphthalen-1-yl)carbamoyl)pyrrolidin-3-yl)cyclopropane-1,1-dicarboxamide], the 50% inhibitory concentration (IC50) (usually the midpoint of a concentration-inhibition curve) is 150 nM.

In the case of `CN[C@@H](C)C(=O)N[C@H](C(=O)N1Cc2cc(N(C(=O)C3(C(N)=O)CCC3)[C@H]3C[C@@H](C(=O)N[C@@H]4CCCc5ccccc54)N(C(=O)[C@@H](NC(=O)[C@H](C)NC)C(C)(C)C)C3)ccc2C[C@H]1C(=O)N[C@@H]1CCCc2ccccc21)C(C)(C)C` [Example 5, N-((S)-2-((S)-3,3-Dimethyl-2-((S)-2-(methylamino)propanamido)butanoyl)-3-(((R)-1,2,3,4-tetrahydronaphthalen-1-yl)carbamoyl)-1,2,3,4-tetrahydroisoquinolin-7-yl)-N-((3S,5S)-1-((S)-3,3-dimethyl-2-((S)-2-(methylamino)propanamido)butanoyl)-5-(((R)-1,2,3,4-tetrahydronaphthalen-1-yl)carbamoyl)pyrrolidin-3-yl)cyclobutane-1,1-dicarboxamide], the IC50 is 100 nM.

For `CN[C@@H](C)C(=O)N[C@H](C(=O)N1Cc2cc(NC(=O)C3CC4(C3)CC(C(=O)N[C@H]3C[C@@H](C(=O)N[C@@H]5CCCc6ccccc65)N(C(=O)[C@@H](NC(=O)[C@H](C)NC)C(C)(C)C)C3)C4)ccc2C[C@H]1C(=O)N[C@@H]1CCCc2ccccc21)C(C)(C)C` (stereo partly drawn) [Example 7, N^2-((S)-2-((S)-3,3-Dimethyl-2-((S)-2-(methylamino)propanamido)butanoyl)-3-(((R)-1,2,3,4-tetrahydronaphthalen-1-yl)carbamoyl)-1,2,3,4-tetrahydroisoquinolin-7-yl)-N^6-((3S,5S)-1-((S)-3,3-dimethyl-2-((S)-2-(methylamino)propanamido)butanoyl)-5-(((R)-1,2,3,4-tetrahydronaphthalen-1-yl)carbamoyl)pyrrolidin-3-yl)spiro[3.3]heptane-2,6-dicarboxamide], the IC50 worked out at 120 nM.

On to `CN[C@@H](C)C(=O)N[C@H](C(=O)N1Cc2cc(NC(=O)CCc3ccc(C(=O)N[C@H]4C[C@@H](C(=O)N[C@@H]5CCCc6ccccc65)N(C(=O)[C@@H](NC(=O)[C@H](C)NC)C(C)(C)C)C4)cc3)ccc2C[C@H]1C(=O)N[C@@H]1CCCc2ccccc21)C(C)(C)C` [Example 8, (S)-2-((S)-3,3-Dimethyl-2-((S)-2-(methylamino)propanamido)butanoyl)-7-(3-(4-(((3S,5S)-1-((S)-3,3-dimethyl-2-((S)-2-(methylamino)propanamido)butanoyl)-5-(((R)-1,2,3,4-tetrahydronaphthalen-1-yl)carbamoyl)pyrrolidin-3-yl)carbamoyl)phenyl)propanamido)-N-((R)-1,2,3,4-tetrahydronaphthalen-1-yl)-1,2,3,4-tetrahydroisoquinoline-3-carboxamide], for which the concentration for half-maximal inhibition (IC50) was 99 nM.
